The results in this text go back to US11352350B2, “IRAK degraders and uses thereof” (Kymera Therapeutics, Inc., priority 2018, dated 2022).

Amino acid sequences for entries named in this document (tags omitted).
UniProt Q9NWZ3, whole entry: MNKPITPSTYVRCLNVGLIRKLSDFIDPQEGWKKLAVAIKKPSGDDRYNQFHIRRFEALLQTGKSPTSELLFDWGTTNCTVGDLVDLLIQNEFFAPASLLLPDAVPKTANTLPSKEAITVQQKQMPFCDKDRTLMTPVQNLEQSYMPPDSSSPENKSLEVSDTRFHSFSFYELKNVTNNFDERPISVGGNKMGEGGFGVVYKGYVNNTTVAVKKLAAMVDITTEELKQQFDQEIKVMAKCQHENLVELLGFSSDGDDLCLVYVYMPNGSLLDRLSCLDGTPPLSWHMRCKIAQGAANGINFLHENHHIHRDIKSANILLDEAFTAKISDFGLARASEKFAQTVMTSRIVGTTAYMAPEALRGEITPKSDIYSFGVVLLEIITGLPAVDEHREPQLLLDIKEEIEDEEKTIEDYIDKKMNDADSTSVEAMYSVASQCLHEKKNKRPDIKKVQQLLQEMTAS

In experiment [1] the target is T1, IRAK4 (Homo sapiens (Human), UniProt Q9NWZ3). The experiment can be described thus: IRAK4 MSD degradation in OCI-LY10. The format is cell-based. As to conditions: read-out: IRAK4 MSD degradation in OCI-LY10 at 4 hrs: Average external-Abs DC50, OCI-LY10, 4 hrs.
A further experiment has as its system OCI-LY10. Put plainly: CTG Cell Viability Assay - OCI-LY10. As to conditions: read-out: CTG Cell Viability Assay - OCI-LY10: Average external-IC50; OCI-LY10, 4 days.
The test system of the next experiment is TNFα. The experiment can be described thus: Human whole blood LPS TNFα assay. The conditions noted are these: read-out: IRAK4 human whole blood LPS TNFa inhibition: Average external-IC50, 20 h pretreatment, LPS 5 h.
The target in experiment [2] is T1, IRAK4. The experiment can be described thus: IRAK4 degradation in human whole blood lymphocyte - flow cytometry. As to conditions: read-out: IRAK4 degradation in whole blood lymphocyte-Flow cytometry: Average external Abs IC50. For orientation: In flow cytometry, cells or beads pass a laser one at a time.
The target of experiment [3] is T1, IRAK4. Put plainly: IRAK4 degradation in human whole blood monocyte - flow cytometry. As to conditions: read-out: IRAK4 degradation in whole blood monocyte-Flow cytometry: Average external Abs IC50.

The term DC50 denotes the concentration giving 50% degradation. The term IC50 denotes the concentration that gives 50% inhibition.

As for `CC(C)c1nn([C@H]2CC[C@H](CN(C)CCOCCOCCCc3cccc4c3n(C)c(=O)n4C3CCC(=O)NC3=O)CC2)cc1NC(=O)c1coc(-c2ccnc(NCC3CC3)c2)n1` (some centres unmarked), the DC50 on IRAK4 [1] lay within 100 to 1000 nM.

Consider `Cn1c(=O)n(C2CCC(=O)NC2=O)c2cccc(CCCOCCCNC[C@H]3CC[C@H](n4cc(NC(=O)c5coc(-c6ccnc(NCC(F)(F)F)c6)n5)c(C(N)=O)n4)CC3)c21` (some centres unmarked), for which the IC50 in the experiment with OCI-LY10 is greater than 1000 nM; in the experiment with TNFα, greater than 1000 nM; at IRAK4 [2], 100 to 500 nM; at IRAK4 [3], less than 50 nM. The DC50 on IRAK4 [1] is less than 10 nM.

In the case of `CN(CCOCCNCc1cccc2c1n(C)c(=O)n2C1CCC(=O)NC1=O)C(=O)[C@H]1CC[C@H](n2cc(NC(=O)c3coc(-c4ccnc(NCC5CC5)c4)n3)c(C(F)F)n2)CC1` (some centres unmarked), the IC50 with OCI-LY10 was greater than 1000 nM. Moreover, the DC50 on IRAK4 [1] is less than 10 nM.
